Data as given in patent US5811512A, “Non-peptide peptidomimetics and related cyclic hexapeptides” (The Trustees of the University of Pennsylvania, priority 1996, dated 1998).

Protein sequences, listed by entry. Tags and fused reporters are not part of them.
UniProt P25103, whole entry: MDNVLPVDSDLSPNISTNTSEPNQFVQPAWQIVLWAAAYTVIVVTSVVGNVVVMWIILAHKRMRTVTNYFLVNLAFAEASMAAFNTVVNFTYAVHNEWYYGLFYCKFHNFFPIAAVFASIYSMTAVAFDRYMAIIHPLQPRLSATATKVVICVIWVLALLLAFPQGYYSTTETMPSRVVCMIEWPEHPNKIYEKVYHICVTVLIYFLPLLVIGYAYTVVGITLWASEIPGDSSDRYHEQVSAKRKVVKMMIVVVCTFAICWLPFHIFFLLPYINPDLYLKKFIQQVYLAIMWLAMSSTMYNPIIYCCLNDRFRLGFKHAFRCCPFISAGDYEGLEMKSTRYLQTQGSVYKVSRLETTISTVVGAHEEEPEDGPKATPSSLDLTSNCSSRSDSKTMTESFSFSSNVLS

Target: human neurokinin-1 receptor (NK1R) (Homo sapiens, UniProt P25103)
Assay: Substance P receptor binding: 125I-substance P displacement from human NK1R expressed in COS cells
Conditions: read-out: IC50 (concentration required to inhibit the binding of substance P to the human neurokinin-1 receptor by 50%); 125I-SP, COS cells expressing human NK1R
Protocol: The affinity of a variety of compounds for the substance P receptor was determined employing the following procedure.
A. Receptor Expression in COS
To express the cloned human neurokinin-1 receptor (NK1R) transiently in COS, the cDNA for the human NK1R was cloned into the expression vector pCDM9 which was derived from pCDM8 (Invitrogen) by inserting the ampicillin resistance gene (nucleotide 1973 to 2964 from Bluescript SK+) into the Sac II site. […]
The binding assay of human NK1R expressed in COS cells is based on the use of ^125 I-substance P (^125 I-SP, from DuPont, Boston, Mass.) as a radioactively labeled ligand which competes with unlabeled substance P or any other ligand for binding to the human NK1R. […] The bound radioactivity was separated from unbound radioactivity by GF/C filter (Brandel, Gaithersburg, Md.) which was pre-wetted with 0.1 polyethylenimine. The filter was washed with 3 ml of wash buffer (50 Tris pH 7.5, 5 mM MnCl21 150 mM NaCl) three times and its radioactivity was determined by gamma counter.
A variety of compounds were tested according to the COS cell procedure. The concentration of compound required to inhibit the binding of substance P to the human neurokinin-1 receptor by 50% was measured.

IC50: 0.4 µM
SMILES: CO[C@@H]1O[C@H](COCCCCCNC(C)=O)[C@@H](OCc2ccccc2)[C@H](OCc2ccccc2)[C@H]1OCc1ccccc1
